Broadly, the inhibition is the drop in the measured response relative to a control, in per cent.

Inhibition data for seven molecules are collected here from PubChem BioAssay AID487 (Columbia University Molecular Screening Center, 2006).

Structures are written as SMILES. The list shows a part of the results, in another mix than the full data. Active and inactive are the calls of the source.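 How the source made its calls: active means visually confirmed hit in the image check and inhibition above 20%; inconclusive means visually confirmed hit but inhibition not above 20%; inactive means no visual hit in the image check.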

The nature of the assay: inhibitors of E-selectin induction by TNFa, primary screen, imaging, HUVEC, immunofluorescence, MLSMR starter and 10KST1 sets (AID 487).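 Further: signal is fraction of cell area covered by stained E-selectin grains.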 The settings on record: HUVEC TNFalpha-induced E-selectin immunofluorescence imaging; at 2 µM; hits give high values.
In the case of `O=P(Nc1nccs1)(c1ccccc1)c1ccccc1`, the inhibition is inactive: -91.6%.

Regarding `O=C(COc1ccccc1)OC1CN2CCC1CC2` (configuration not stated), the inhibition is inactive: -60%. Turning to `COP1(=S)c2c(C)nn(CCC#N)c2N=C(c2ccc(F)cc2)N1C` (configuration not stated), the inhibition is inactive: -4.6%. On to `CCOP1(=S)c2c(C)nn(CCC#N)c2N=C(c2ccccc2F)N1C` (configuration not stated), for which the inhibition was inactive: -14.6%. With `Cc1cccc(OCC(=O)OC2CN3CCC2CC3)c1` (configuration not stated) the figure was inactive: -60.7%; with `Cc1ccc(OCC(=O)OC2CN3CCC2CC3)cc1` (configuration not stated), inactive: 18.1%; with `Cc1nn(-c2ccccc2)c2c1P(=O)(N1CCOCC1)N(C)C(c1ccccc1)=N2` (configuration not stated), inactive: -23.6%.
